Test results taken from PMC4135049 (Molecular nutrition & food research, 2011).

Sequences of proteins named here, by UniProt entry; tags and fusion partners are left off. Residues count along the entry.
UniProt P23219, 24-599: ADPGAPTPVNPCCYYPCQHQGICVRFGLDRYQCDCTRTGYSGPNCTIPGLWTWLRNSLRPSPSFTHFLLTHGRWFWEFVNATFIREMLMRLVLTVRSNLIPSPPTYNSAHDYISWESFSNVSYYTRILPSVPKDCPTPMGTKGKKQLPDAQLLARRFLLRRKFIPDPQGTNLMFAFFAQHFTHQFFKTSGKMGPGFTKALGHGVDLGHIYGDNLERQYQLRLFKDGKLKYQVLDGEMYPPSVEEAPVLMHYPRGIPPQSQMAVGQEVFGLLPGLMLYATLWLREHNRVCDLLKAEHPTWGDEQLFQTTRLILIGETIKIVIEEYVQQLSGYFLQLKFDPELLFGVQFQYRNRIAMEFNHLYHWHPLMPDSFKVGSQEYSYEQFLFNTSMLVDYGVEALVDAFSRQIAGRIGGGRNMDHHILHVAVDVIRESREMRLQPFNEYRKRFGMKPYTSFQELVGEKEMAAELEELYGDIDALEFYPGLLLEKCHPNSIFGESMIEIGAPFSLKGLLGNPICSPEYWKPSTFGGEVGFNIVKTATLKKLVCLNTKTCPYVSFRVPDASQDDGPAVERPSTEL

Molecular target: COX-1 (Homo sapiens, UniProt P23219)
Test: COX-1 assay
Format: biochemical

`Oc1ccc(/C=C/c2cc(O)cc(O)c2)cc1` gave an IC50 of 350 ± 100 nM.
